Literature values in article PMC7365701 (Journal of medicinal chemistry, 2020).

Tested on: PPARα
Settings: cited from earlier work

## Cc1nc(-c2ccc(C(F)(F)F)cc2)sc1C(=O)NCc1ccc(OC(C)(C)C(=O)O)cc1 [GW590735]
  selectivity over PPARγ and PPARδ: ≥ 500 fold
